Consider one compound from ChEMBL document CHEMBL1134339, “New 1-aryl-3-(4-arylpiperazin-1-yl)propane derivatives, with dual action at 5-HT1A serotonin receptors and serotonin transporter, as a new class of antidepressants” (J Med Chem, 2001).

Chains of the proteins cited; added tags and fusions are not shown.
UniProt P19327, whole entry: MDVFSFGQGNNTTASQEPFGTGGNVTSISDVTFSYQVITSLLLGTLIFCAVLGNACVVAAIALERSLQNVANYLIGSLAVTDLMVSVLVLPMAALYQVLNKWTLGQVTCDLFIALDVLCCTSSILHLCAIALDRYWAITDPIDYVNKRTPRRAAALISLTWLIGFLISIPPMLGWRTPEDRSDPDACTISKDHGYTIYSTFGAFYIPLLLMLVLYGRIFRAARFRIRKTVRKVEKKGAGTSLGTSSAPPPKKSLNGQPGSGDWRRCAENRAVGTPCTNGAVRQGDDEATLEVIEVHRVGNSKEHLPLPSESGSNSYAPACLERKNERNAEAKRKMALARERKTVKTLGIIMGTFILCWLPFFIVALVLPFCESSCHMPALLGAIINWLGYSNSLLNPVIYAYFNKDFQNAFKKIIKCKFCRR

This experiment has as its target 5-hydroxytryptamine receptor 1A (Rattus norvegicus, UniProt P19327). Description: Binding affinity to 5-hydroxytryptamine 1A receptor (5-HT 1A receptor, serotonin receptor) from rat cortex using [3H]8-OH-DPAT as radioligand.

As a reminder, the Ki is the equilibrium dissociation constant of an inhibitor or competing ligand from its target. A higher Ki goes with lower affinity. Regarding `OC(CCN1CCN(c2ccc(Cl)cc2)CC1)c1ccsc1` (stereo unspecified), the Ki came out at 2.75 µM.
